Patent US11992488B2, “Vasoconstriction compositions and methods of use” (Eye Therapies, LLC, priority 2008, dated 2024)

How the values were obtained:
[1] = tested on: patient with an ocular condition; conditions: brimonidine at 0.033%, left eye only, 4 hrs after FIG. 4D
[2] = tested on: patient with nasal congestion; conditions: 0.03% Brimonidine nasal spray, repeated for one week, n of 1
[3] = tested on: under-responders; conditions: of 100 Subjects (under-responders)
[4] = tested on: over-responders wearing contact lenses; conditions: 0.008% brimonidine while wearing contact lenses, of 100 Subjects (over-responders)
[5] = tested on: over-responders; conditions: contact lenses soaked in 0.008% brimonidine, of 100 Subjects (over-responders)
[6] = tested on: patients having a red eye condition; assay: Example 4: red eye study, cumulative red scores; conditions: brimonidine at 0.05% (1 of 15)
[7] = tested on: Lasik patients (Intralase femtosecond laser); assay: Example 2: Lasik prophylaxis (postoperative hyperemia, hemorrhage, flap dislocation)
[8] = 0.037% brimonidine after wash-out
[9] = Brimonidine 0.02%, Treatment Group 3

Brc1c(N=C2NCCN2)ccc2nccnc12.O=C(O)C(O)C(O)C(=O)O [brimonidine, 5-bromo-6-(2-imidazolidinylideneamino) quinoxaline L-tartrate]
rebound hyperemia after third application [1]: without rebound hyperemia | rebound on repeated use [2]: without rebound | Other side effects [3, 8]: 1 | Side Effects: Eye ache/strain [3, 8]: 1 | Side Effects: Eye dryness [3, 8]: 1 | Side Effects: Eye irritation [3, 8]: 1 | Side Effects: Rebound [3, 8]: 0 | Other side effects ([3]; […] brimonidine): 00 | Side Effects: Eye ache/strain ([3]; […] brimonidine): 0 | Side Effects: Eye dryness ([3]; […] brimonidine): 0 | Side Effects: Eye irritation ([3]; […] brimonidine): 0 | Side Effects: Rebound ([3]; […] brimonidine): 0 | Other side effects [4]: 1 | Side Effects: Eye ache/strain [4]: 1 | Side Effects: Eye dryness [4]: 1 | Side Effects: Eye irritation [4]: 1 | Side Effects: Rebound [4]: 0 | Other side effects [5]: 1 | Side Effects: Eye ache/strain [5]: 1 | Side Effects: Eye dryness [5]: 1 | Side Effects: Eye irritation [5]: 1 | Side Effects: Rebound [5]: 0 | Rebound hyperemia after one dose [6]: 6.6% | flap dislocation rate ([7]; Brimonidine 0.02% topically, 10-20 minutes preoperatively, initial trial): under 1% | adverse cardiovascular events [7, 9]: No adverse cardiovascular events occurred | allergic reactions [7, 9]: No significant allergic reactions have been found | flap dislocation rate ([7]; Brimonidine 0.02%, group expanded to over 500 eyes, most mild striae): under 1%

Like-named read-outs stand apart in the source and are kept apart here.
